In the antibiotic and cytotoxicity screens of Wong et al. (2023):
This list holds what a sample rich in hits left over.

What was measured:
HSkMC = human skeletal muscle cells; experiment: cytotoxicity call (relative viability < 0.9); conditions: 10 µM
HepG2 = experiment: cytotoxicity call (relative viability < 0.9); conditions: 10 µM
S. aureus RN4220 = experiment: growth inhibition call (relative growth <= 0.2); conditions: 50 µM

CC[C@H](C)[C@H](NC(=O)[C@H](CCC(=O)O)NC(=O)[C@H](CCC(=O)O)NC(=O)[C@H](Cc1ccccc1)NC(=O)[C@H](CC(=O)O)NC(=O)CNC(=O)[C@H](CC(N)=O)NC(=O)CNC(=O)CNC(=O)CNC(=O)CNC(=O)[C@@H]1CCCN1C(=O)[C@H](CCCNC(=N)N)NC(=O)[C@@H]1CCCN1C(=O)[C@H](N)Cc1ccccc1)C(=O)N1CCC[C@H]1C(=O)N[C@@H](CCC(=O)O)C(=O)N[C@@H](CCC(=O)O)C(=O)N[C@@H](Cc1ccc(O)cc1)C(=O)N[C@@H](CC(C)C)C(=O)O
inactive: cytotoxicity call (HSkMC) | cytotoxicity call (HepG2) | growth inhibition call (S. aureus RN4220)
